Laboratory results as given in PMC7084495, “Discovery of 1-Pyrimidinyl-2-Aryl-4,6-Dihydropyrrolo [3,4-d]Imidazole-5(1H)-Carboxamide as a Novel JNK Inhibitor” (International Journal of Molecular Sciences, 2020).
Like-named read-outs stand apart in the source and are kept apart here.

Chains of the proteins cited; added tags and fusions are not shown. Lines headed by an entry give the natural chain unless they say otherwise; changes in a name come on top.
UniProt P53779: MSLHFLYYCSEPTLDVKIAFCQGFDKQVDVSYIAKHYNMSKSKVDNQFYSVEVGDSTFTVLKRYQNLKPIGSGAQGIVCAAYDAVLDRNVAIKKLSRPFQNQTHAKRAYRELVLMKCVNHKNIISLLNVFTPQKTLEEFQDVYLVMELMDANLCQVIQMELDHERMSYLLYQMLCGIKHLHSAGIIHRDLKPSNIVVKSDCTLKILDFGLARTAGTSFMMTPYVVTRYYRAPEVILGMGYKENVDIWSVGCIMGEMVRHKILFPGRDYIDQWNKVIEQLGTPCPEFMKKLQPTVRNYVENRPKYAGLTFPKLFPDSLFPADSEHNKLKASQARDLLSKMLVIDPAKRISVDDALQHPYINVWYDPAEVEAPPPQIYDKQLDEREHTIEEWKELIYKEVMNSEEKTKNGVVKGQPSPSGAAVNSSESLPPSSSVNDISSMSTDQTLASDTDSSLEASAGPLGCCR
UniProt P49841: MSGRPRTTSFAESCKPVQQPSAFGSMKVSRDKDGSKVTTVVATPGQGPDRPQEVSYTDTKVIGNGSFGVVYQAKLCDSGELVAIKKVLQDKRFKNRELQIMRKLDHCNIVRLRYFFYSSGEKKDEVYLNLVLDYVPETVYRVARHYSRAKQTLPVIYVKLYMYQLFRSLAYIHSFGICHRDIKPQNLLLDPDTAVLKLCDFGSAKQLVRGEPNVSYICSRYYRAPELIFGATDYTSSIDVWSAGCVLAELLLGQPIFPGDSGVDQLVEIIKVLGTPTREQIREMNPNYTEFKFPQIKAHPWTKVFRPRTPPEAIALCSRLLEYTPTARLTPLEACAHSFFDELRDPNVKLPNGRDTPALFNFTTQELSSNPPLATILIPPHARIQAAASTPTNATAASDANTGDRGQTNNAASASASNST
UniProt Q9Y572: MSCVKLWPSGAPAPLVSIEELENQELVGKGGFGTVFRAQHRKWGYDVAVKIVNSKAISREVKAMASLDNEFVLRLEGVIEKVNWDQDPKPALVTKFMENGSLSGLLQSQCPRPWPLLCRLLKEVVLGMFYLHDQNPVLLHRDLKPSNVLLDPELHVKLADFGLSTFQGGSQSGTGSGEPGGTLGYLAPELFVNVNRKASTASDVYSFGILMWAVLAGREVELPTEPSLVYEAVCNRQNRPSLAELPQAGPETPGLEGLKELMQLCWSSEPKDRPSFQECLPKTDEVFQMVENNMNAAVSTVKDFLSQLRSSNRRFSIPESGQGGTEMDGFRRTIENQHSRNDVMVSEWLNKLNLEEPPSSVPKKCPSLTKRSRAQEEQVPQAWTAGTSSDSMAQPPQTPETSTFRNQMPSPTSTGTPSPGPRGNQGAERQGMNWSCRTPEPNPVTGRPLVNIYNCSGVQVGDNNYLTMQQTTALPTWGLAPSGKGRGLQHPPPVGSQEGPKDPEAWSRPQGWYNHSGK

Assays:
[1] = target: T1, JNK3 (h) (Homo sapiens, UniProt P53779); experiment: JNK3 kinase inhibition, Reaction Biology Kinase HotSpot radiometric assay; assay type: biochemical
T1 construct: purchased Reaction Biology Corp. (Kinase HotSpot service)
From the text: (specific activity approx. 500 cpm/pmol, concentration as required).

[2] = target: JNK2 (Homo sapiens, UniProt P45984); experiment: biochemical
Protocol: (§1) (specific activity approx. 500 cpm/pmol, concentration as required). […] After incubation for 40 min at room temperature, the reaction was stopped by the addition of 5 μL of a 3% phosphoric acid solution.

[3] = target: GSK3β (Homo sapiens, UniProt P49841); experiment: biochemical
Protocol: as §1

[4] = target: RIPK3 (Homo sapiens, UniProt Q9Y572); experiment: biochemical; conditions: read-out: enzymatic inhibition of RIPK3 in kinase panel screening
Protocol: as §1

[5] = enzymatic activity, ATP 10 μM, read-out: JNK3 IC50

Row | SMILES | IC50 [1, 5] [nM] | IC50 [1] [nM] | also measured
1 | NC(=O)N1Cc2nc(-c3ccc4ccccc4c3)n(-c3ccnc(N[C@H]4CCCN(C(=O)C5CC5)C4)n3)c2C1 [Compound 17b, (S)-1-(2-((1-(Cyclopropanecarbonyl)piperidin-3-yl)Amino)Pyrimidin-4-yl)-2-(Naphthalen-2-yl)-4,6-Dihydropyrrolo[3,4-d]Imidazole-5(1H)-Carboxamide] | 4.81 |  | 
2 | NC(=O)N1Cc2nc(-c3ccc4c(c3)OCO4)n(-c3ccnc(N[C@H]4CCCN(C(=O)C5CC5)C4)n3)c2C1 [Compound 17c, (S)-2-(Benzo[d][1,3]Dioxol-5-yl)-1-(2-((1-(Cyclopropanecarbonyl)Piperidin-3-yl)Amino)Pyrimidin-4-yl)-4,6-Dihydropyrrolo[3,4-d]Imidazole-5(1H)-Carboxamide] |  | 131 | 
3 | NC(=O)N1Cc2nc(-c3ccc4c(c3)CCO4)n(-c3ccnc(N[C@H]4CCCN(C(=O)C5CC5)C4)n3)c2C1 [Compound 17d, (S)-1-(2-((1-(Cyclopropanecarbonyl)Piperidin-3-yl)Amino)Pyrimidin-4-yl)-2-(2,3-Dihydrobenzofuran-5-yl)-4,6-Dihydropyrrolo[3,4-d]Imidazole-5(1H)-Carboxamide] |  | 41.2 | 
4 | NC(=O)N1Cc2nc(-c3ccc(Cl)c(Cl)c3)n(-c3ccnc(N[C@@H]4CCN(C(=O)C5CC5)C4)n3)c2C1 [Compound 18a, (R)-1-(2-((1-(Cyclopropanecarbonyl)Pyrrolidin-3-yl)Amino)Pyrimidin-4-yl)-2-(3,4-Dichlorophenyl)-4,6-Dihydropyrrolo[3,4-d]Imidazole-5(1H)-Carboxamide] |  | 2.69 | Selectivity/JNK3 of 18a, JNK2 ([2]; JNK2 vs JNK3): >80 fold; inhibition at 10 µM ([2]; read-out: enzymatic inhibition of JNK2 in kinase panel screening): > 50%; Selectivity/JNK3 of 18a, GSK3β ([3]; GSK3β vs JNK3): >2000 fold; inhibition at 10 µM ([3]; read-out: enzymatic inhibition of GSK3β in kinase panel screening): > 50%; inhibition at 10 µM [4]: > 50%
5 | NC(=O)N1Cc2nc(-c3ccc4ccccc4c3)n(-c3ccnc(N[C@@H]4CCN(C(=O)C5CC5)C4)n3)c2C1 [Compound 18b, (R)-1-(2-((1-(Cyclopropanecarbonyl)Pyrrolidin-3-yl)Amino)Pyrimidin-4-yl)-2-(Naphthalen-2-yl)-4,6-Dihydropyrrolo[3,4-d]Imidazole-5(1H)-Carboxamide] | 4.52 |  | 
6 | NC(=O)N1Cc2nc(-c3ccc4c(c3)OCO4)n(-c3ccnc(N[C@@H]4CCN(C(=O)C5CC5)C4)n3)c2C1 [Compound 18c, (R)-2-(Benzo[d][1,3]Dioxol-5-yl)-1-(2-((1-(Cyclopropanecarbonyl)Pyrrolidin-3-yl)Amino)Pyrimidin-4-yl)-4,6-Dihydropyrrolo[3,4-d]Imidazole-5(1H)-Carboxamide] |  | 37.3 | 
7 | NC(=O)N1Cc2nc(-c3ccc4c(c3)CCO4)n(-c3ccnc(N[C@@H]4CCN(C(=O)C5CC5)C4)n3)c2C1 [Compound 18d, (R)-1-(2-((1-(Cyclopropanecarbonyl)Pyrrolidin-3-yl)Amino)Pyrimidin-4-yl)-2-(2,3-Dihydrobenzofuran-5-yl)-4,6-Dihydropyrrolo[3,4-d]Imidazole-5(1H)-Carboxamide] | 16.7 |  | 
8 | NC(=O)N1Cc2nc(-c3ccc(Cl)c(Cl)c3)n(-c3ccnc(N[C@H]4CCN(C(=O)C5CC5)C4)n3)c2C1 [Compound 19a, (S)-1-(2-((1-(Cyclopropanecarbonyl)Pyrrolidin-3-yl)Amino)Pyrimidin-4-yl)-2-(3,4-Dichlorophenyl)-4,6-Dihydropyrrolo[3,4-d]Imidazole-5(1H)-Carboxamide] |  | 113 | 
9 | NC(=O)N1Cc2nc(-c3ccc4ccccc4c3)n(-c3ccnc(N[C@H]4CCN(C(=O)C5CC5)C4)n3)c2C1 [Compound 19b, (S)-1-(2-((1-(Cyclopropanecarbonyl)Pyrrolidin-3-yl)Amino)Pyrimidin-4-yl)-2-(3,4-Dichlorophenyl)-4,6-Dihydropyrrolo[3,4-d]Imidazole-5(1H)-Carboxamide] | 48.2 |  | 
10 | NC(=O)N1Cc2nc(-c3ccc4c(c3)OCO4)n(-c3ccnc(N[C@H]4CCN(C(=O)C5CC5)C4)n3)c2C1 [Compound 19c, (S)-2-(Benzo[d][1,3]Dioxol-5-yl)-1-(2-((1-(Cyclopropanecarbonyl)Pyrrolidin-3-yl)Amino)Pyrimidin-4-yl)-4,6-Dihydropyrrolo[3,4-d]Imidazole-5(1H)-Carboxamide] |  | 744 | 
11 | NC(=O)N1Cc2nc(-c3ccc4c(c3)CCO4)n(-c3ccnc(N[C@H]4CCN(C(=O)C5CC5)C4)n3)c2C1 [Compound 19d, (S)-1-(2-((1-(Cyclopropanecarbonyl)Pyrrolidin-3-yl)Amino)Pyrimidin-4-yl)-2-(2,3-Dihydrobenzofuran-5-yl)-4,6-Dihydropyrrolo[3,4-d]Imidazole-5(1H)-Carboxamide] | 529 |  | 
12 | NC(=O)N1Cc2nc(-c3ccc(Cl)c(Cl)c3)n(-c3ccnc(N[C@H]4CCCN(C(=O)C5CCC5)C4)n3)c2C1 [Compound 20a, (S)-1-(2-((1-(Cyclobutanecarbonyl)Piperidin-3-yl)Amino)Pyrimidin-4-yl)-2-(3,4-Dichlorophenyl)-4,6-Dihydropyrrolo[3,4-d]Imidazole-5(1H)-Carboxamide] | 29.7 |  | 
13 | NC(=O)N1Cc2nc(-c3ccc(Cl)c(Cl)c3)n(-c3ccnc(N[C@H]4CCCN(C(=O)C5CCCC5)C4)n3)c2C1 [Compound 21a, (S)-1-(2-((1-(Cyclopentanecarbonyl)Piperidin-3-yl)Amino)Pyrimidin-4-yl)-2-(3,4-Dichlorophenyl)-4,6-Dihydropyrrolo[3,4-d]Imidazole-5(1H)-Carboxamide] | 24.8 |  | 
